# Literature values as cited in patent US12637662B2, “Cells, islets, and organoids that evade immune detection and autoimmunity, methods of production and use thereof” (SALK INSTITUTE FOR BIOLOGICAL STUDIES, priority 2018, dated 2026).
# What was measured:
# [1] = molecular target: T1, CD86 (B7-2) (Homo sapiens, UniProt P42081); conditions: cited from earlier work
# T1 sequence (P42081 24-329): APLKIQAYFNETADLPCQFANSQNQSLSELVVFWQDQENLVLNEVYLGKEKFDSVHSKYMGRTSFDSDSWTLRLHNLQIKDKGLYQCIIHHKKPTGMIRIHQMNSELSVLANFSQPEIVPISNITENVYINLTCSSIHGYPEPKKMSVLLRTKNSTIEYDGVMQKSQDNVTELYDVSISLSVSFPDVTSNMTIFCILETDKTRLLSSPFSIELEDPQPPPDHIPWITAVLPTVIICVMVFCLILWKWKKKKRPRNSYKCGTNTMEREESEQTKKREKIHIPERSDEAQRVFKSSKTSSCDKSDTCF
# [2] = molecular target: CD28 (Homo sapiens, UniProt P10747); conditions: read-out: affinity for CD28; cited from earlier work
# [3] = molecular target: T2, CD80 (B7-1) (Homo sapiens, UniProt P33681); conditions: read-out: affinity for CD80; cited from earlier work
# T2 sequence (P33681 35-288): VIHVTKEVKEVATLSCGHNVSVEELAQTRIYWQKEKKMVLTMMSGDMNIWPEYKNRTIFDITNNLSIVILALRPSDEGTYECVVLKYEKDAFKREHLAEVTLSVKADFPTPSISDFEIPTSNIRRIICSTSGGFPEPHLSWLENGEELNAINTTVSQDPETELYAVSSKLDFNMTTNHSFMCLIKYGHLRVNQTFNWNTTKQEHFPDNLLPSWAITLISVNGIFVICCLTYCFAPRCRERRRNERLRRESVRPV
# [4] = molecular target: CTLA-4 (Homo sapiens, UniProt P16410); conditions: read-out: affinity for CTLA-4; cited from earlier work
substance,measurement,setting,value
"PD-L1: immune checkpoint protein, cognate ligand that binds to PD-1",affinity for CD86 (in words),[1],not for CD86
same,Kd,[2],4 µM
same,Kd,[3],1.4 µM
same,Kd,[4],0.4 µM
